From PubChem BioAssay (NCATS) come the findings set out here.

Only a part is listed here, and it is no random draw. Inconclusive results are not listed. Calls of active or inactive are those of the source. Unless noted, calls come from the whole dose curve; as a rule, active = well fitted curve in the direction sought with a large enough effect; inconclusive = small, poorly fitted or top-dose-only effect, or another doubt; inactive = no such curve, though single readings can be large; an effect the other way counts as inactive or inconclusive.

The target in assay [1] is Mitogen-activated protein kinase 10 (Mus musculus) (UniProt Q61831). As to the kind of experiment: JNK3 AlphaScreen Assay (AID 530; active = well fitted curve in either direction with a large enough effect, not every such curve was filed as active;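 note: kinase came from lysate of stimulated human HepG2 cells; signal reports phosphorylation of biotinylated GST-cJun 1-79 at Ser73 with 10 µM ATP; % is set by controls: 0 for no effect and ±100 for the full control effect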). As to conditions: JNK3 lysate, c-Jun phosphorylation; at 57.1 µM (top of the series). In a few lines:
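Pre-activated (IL-1β/TNFα) JNK3 in HepG2 lysates phosphorylates biotin-GST-cJun(1-79), 10 uM ATP; anti-phospho-cJun(Ser73) AlphaScreen read at room temperature, pH 7.6 Tris buffer. Compounds pre-incubated 15 min as titrations.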
(Alpha assays give light when donor and acceptor beads are brought close together.)

Assay [2] can be described thus: Cell Viability - N2a (AID 540).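 Note: plate controls were DMSO alone for no effect and tamoxifen control for full effect; nearly all actives have a fitted effect of over 45% in size.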 As to conditions: N2a mouse neuroblastoma cell viability; at 92.2 µM (top of the series). In a few lines:
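Luminescent ATP signal (CellTiter-Glo, 20 min at room temperature) served as the viability read-out after N2a cells were treated with compounds for 40 hours at 37 °C. Concentration-response data were fitted to the Hill equation for AC50.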

Assay [3] can be described thus: Cell Viability - NIH 3T3 (AID 541).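 For activity change, negative = cytotoxicity: plate controls were DMSO alone for no effect and tamoxifen positive control for full effect.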 Note: nearly all actives have a fitted effect of over 25% in size. Note: potency is the fitted concentration of half-maximal effect. In a few lines:
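Luminescent ATP signal (CellTiter-Glo) served as the viability read-out after NIH 3T3 cells were exposed to compounds over a concentration range for 40 hr at 37 °C. Hill-equation modelling of concentration-response data gave AC50.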

Assay [4] is described as follows: Cell Viability - HUV-EC-C (AID 542). Note: % is set by controls: 0 for no effect and ±100 for the full control effect; nearly all actives have a fitted effect of over 35% in size. The conditions noted are these: HUV-EC-C endothelial cell viability, qHTS; at 92.2 µM (top of the series). In short, it runs like this:
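qHTS cytotoxicity: HUV-EC-C, 1000 cells/well, 5 hr settle, compound 40 hr 37 °C, CellTiter-Glo, luminescence. AC50 via Hill equation.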
(In general: Quantitative high-throughput screening tests each substance at several concentrations.)

A short description of assay [5]: Cell Viability - H-4-II-E (AID 543). Note: nearly all actives have a fitted effect of over 35% in size. Note: potency is the fitted concentration of half-maximal effect. In short, it runs like this: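 Luminescent ATP signal (CellTiter-Glo) served as the viability read-out, with cytotoxicity seen as a concentration-dependent ATP drop. Cells were treated for 40 hours in complete medium. AC50 values derive from Hill-equation modelling.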
The nature of assay [6]: Cell Viability - SH-SY5Y (AID 544). Note: nearly all actives have a fitted effect of over 55% in size. Note: potency is the fitted concentration of half-maximal effect. In a few lines:
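Luminescent ATP read-out (CellTiter-Glo) measures loss of viable SH-SY5Y neuroblastoma cells after 40 hr compound exposure at 37 °C. AC50 values derive from standard Hill modelling of qHTS concentration-response data.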

Assay [7] is described as follows: Cell Viability - Renal Proximal Tubule (AID 545). Note: nearly all actives have a fitted effect of over 40% in size. As to conditions: renal proximal tubule cells viability, primary cells of rat origin; at 91.7 µM (top of the series). In short, it runs like this: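 Primary rat renal proximal tubule cells (1000/well) were treated with compounds for 40 hr at 37 °C in complete medium. Intracellular ATP was measured by CellTiter-Glo luminescence, and AC50 values came from Hill-equation fits of concentration-response data.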

Assay [8] in a line: Cell Viability - Mesenchymal (AID 546).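 Note: cells exposed to compound for 40 hours before reading.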 As to conditions: mesenchymal cells viability, qHTS; at 91.7 µM (top of the series). In a few lines: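 Human kidney mesenchymal cells from normal renal glomeruli, 1000 cells/well, rested 5 hr at 37 °C, then treated 40 hr at 37 °C in complete medium. Cellular ATP read by CellTiter-Glo luminescence; AC50 from Hill-equation fits.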
Assay [9] in a line: Cellular Toxicity (caspase-3) HepG2 (AID 654).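 Note: cells exposed to compound for 16 hours before reading; 0% = DMSO alone and 100% = caspase signal from 100 µM tamoxifen.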 As to conditions: HepG2 caspase-3 activation, luminescence, 0% = DMSO only, 100% = tamoxifen; at 92.2 µM (top of the series). In short, it runs like this:
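Cells plated 5 hr at 37 °C, compound added, incubated 16 hr at 37 °C. Caspase-Glo 3/7 reagent followed, 20 min at room temperature, then luminescence read. Activation scored as signal increase; AC50 from Hill fit.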

The nature of assay [10]: Cellular Toxicity (caspase-3) Jurkat (AID 655).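 Note: cells exposed to compound for 16 h at 37 °C before reading.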 As to conditions: Jurkat caspase-3 activation, luminescence, DMSO = 0%, tamoxifen = 100%; at 92.2 µM (top of the series). In a few lines: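 Jurkat cells (5000/well) in complete medium were treated with compounds for 16 hr at 37 °C, then Caspase-Glo 3/7 luminescence was read after 20 min at room temperature. Data normalized to DMSO (basal) and 100 uM tamoxifen (100%); AC50 from Hill fit.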

A short description of assay [11]: Cellular Toxicity (caspase-3) HUV-EC-C (AID 656). The conditions noted are these: HUV-EC-C cells, caspase-3 activation (apoptosis), vehicle = 0, 100 µM tamoxifen = 100%; at 92.2 µM (top of the series). In a few lines: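 HUV-EC-C endothelial cells, 1000/well, were pre-incubated 5 hr at 37°C, then exposed to compounds for 16 hr at 37°C. Caspase-Glo 3/7 luminescence was read after 20 min at room temperature. AC50 came from Hill fits, normalized to DMSO and 100 uM tamoxifen.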

A short description of assay [12]: Cellular Toxicity (caspase-3) SHSY5Y (AID 657). As to conditions: SH-SY5Y caspase-3 activation, DMSO zero, 10 µM staurosporine = 100%; at 91.7 µM (top of the series). In a few lines: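 SH-SY5Y human neuroblastoma cells (1500/well) were treated with compounds for 16 h at 37 °C, then Caspase-Glo 3/7 luminescence was read after 1 h at room temperature. Data normalized to DMSO and 10 uM staurosporine; AC50 from Hill fits.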

Assay [13] can be described thus: Cellular Toxicity (caspase-3) BJ (AID 658). As to conditions: BJ fibroblasts, luminescence, normalized: DMSO 0%, staurosporine 100%; at 91.7 µM (top of the series). In short, it runs like this: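 BJ human foreskin fibroblasts, 1000 cells/well, treated 16 hours at 37 °C in complete medium; caspase 3/7 activity by Caspase-Glo luminescence after 1 hr at room temperature. Normalized to DMSO and 10 uM staurosporine; AC50 from Hill fits.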

A short description of assay [14]: Cellular Toxicity (caspase-3) MRC-5 (AID 659). As to conditions: MRC-5 cells, luminescence, normalized: DMSO 0%, 10 µM staurosporine 100%; at 91.7 µM (top of the series). In a few lines:
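MRC-5 human normal lung fibroblasts, 1500 cells/well, treated 16 h at 37 °C in complete medium. Caspase 3/7 measured by Caspase-Glo luminescence after 1 h at room temperature. Normalized to DMSO and 10 uM staurosporine; AC50 from Hill fit.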

Assay [15] is described as follows: Cellular Toxicity (caspase-3) Mesangial (AID 660).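 Note: combined caspase 3 and 7 activity read by Caspase-Glo luminescence.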 The conditions noted are these: mesangial cells, normalized: DMSO 0%, 100 µM tamoxifen 100%; at 91.7 µM (top of the series). In a few lines:
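Mesangial cells, 1000/well, 5 h settle at 37 °C; compound 16 h, 37 °C; Caspase-Glo 3/7 reagent 20 min RT; luminescence. Norm.: DMSO = 0%, tamoxifen 100 uM = 100%. AC50, Hill fit.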

The nature of assay [16]: Cellular Toxicity (caspase-3) SK-N-SH (AID 661). Note: potency is the fitted concentration of half-maximal effect. In short, it runs like this:
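Human neuroblastoma SK-N-SH, 1500 cells/well, 5 hr pre-incubation, then compound 16 hr, 37 °C. Caspase-Glo 3/7 reagent, 1 hr RT, luminescence. Norm. to DMSO/10 uM staurosporine; Hill-fit AC50.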

The nature of assay [17]: Cellular Toxicity (caspase-3) H-4-II-E (AID 663).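 Note: cells exposed to compound for 16 hr before readout.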 As to conditions: H-4-II-E rat hepatoma, scaled: DMSO 0%, 100 µM tamoxifen 100%; at 92.2 µM (top of the series). In short, it runs like this: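 Rat hepatoma H-4-II-E cells (1500/well) plated 5 hr, then exposed to compound titrations for 16 hr at 37 °C. Caspase-Glo 3/7 luminescence read after 20 min at RT; data normalized to DMSO and 100 uM tamoxifen, AC50 from Hill fits.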

A short description of assay [18]: Cellular Toxicity (caspase-3) Hek293 (AID 664).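 Note: cells exposed to compound for 16 h at 37 °C before readout.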 The conditions noted are these: HEK293 caspase-3 activation, DMSO = 0%, 100 µM tamoxifen = 100%; at 92.2 µM (top of the series). In short, it runs like this:
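Cells plated, 5 hr at 37 °C; compounds added; 16 hr at 37 °C; Caspase-Glo 3/7 reagent, 20 min RT; luminescence read. Activation expressed relative to DMSO and 100 uM tamoxifen, AC50 by Hill model.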

Assay [19] in a line: Cellular Toxicity (caspase-3) N2a (AID 665).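 Note: compound exposure lasted 16 h at 37 °C before readout.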 The conditions noted are these: N2a cells, luminescence, normalized: DMSO 0%, 10 µM staurosporine 100%; at 92.2 µM (top of the series). In short, it runs like this: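 N2a cells, 1500/well, 5 h settle at 37 °C; cpd 16 h, 37 °C; Caspase-Glo 3/7, 1 h RT; luminescence. Norm: DMSO = 0, 10 uM staurosporine = 100%. AC50, Hill fit.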
Assay [20] is described as follows: Cellular Toxicity (caspase-3) NIH 3T3 (AID 666).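 Note: caspase signal read after 16 h compound exposure.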 As to conditions: NIH 3T3 caspase-3 activation, apoptosis/toxicity, 0% DMSO, 100% is 100 µM tamoxifen; at 92.2 µM (top of the series). In short, it runs like this: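 Luminescence from aminoluciferin released by caspase-3/7 cleavage of a peptide substrate served as read-out. Mouse fibroblast NIH 3T3 cells were exposed to compounds over a concentration range for 16 hours, and AC50 values came from standard Hill modelling.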

On to `O=[N+]([O-])C(Cl)(Cl)Cl`, for which the activity change, negative = inhibition in [1] is inactive: 0.508%. Besides, the activity change, negative = cytotoxicity in assay [2] is inactive: 0.037%; in [4], inactive: -3.99%; in [7], inactive: -9.04%; in [8], inactive: 6.95%. Moreover, the Potency result in assay [3], in assay [5], in assay [6] and in [16] was “inactive” in each case. The caspase-3 activation in assay [9] was inactive: 0.637%; in assay [10] it was inactive: -0.0911%; in assay [11], inactive: 1.18%; in assay [12] it was inactive: 0.027%; in assay [13] it was inactive: -0.461%; in [14], inactive: -0.799%. Further, the caspase-3 activation is inactive: 0.711% in assay [15]; inactive: 0.35% in assay [17]; inactive: 1.25% in assay [18]; inactive: -2.99% in assay [19]; inactive: 3.25% in assay [20].
For the molecule `CN(CCCl)CCCl`, in [1], the activity change, negative = inhibition was inactive: 5.27%. In addition, the Potency was active: 31.6 µM in [3], active: 31.6 µM in assay [5], active: 7.94 µM in [6] and active: 2.51 µM in assay [16]. Moreover, the activity change, negative = cytotoxicity was inactive: -11.3% in assay [4], active: -91.7% in assay [7] and inactive: -9.1% in assay [8]. The caspase-3 activation in assay [9] was inactive: 3.19%; in assay [11], inactive: -1.44%; in [13], inactive: 21.3%; in [14], inactive: 4.53%; in assay [18], inactive: 1.16%; in assay [19] it was inactive: -3.66%.
